Values of other authors, collected in PMC3654037.

The chains behind the UniProt entries cited, without tags or fusion partners. Residues count along the entry.
UniProt Q9NQS3, 58-404: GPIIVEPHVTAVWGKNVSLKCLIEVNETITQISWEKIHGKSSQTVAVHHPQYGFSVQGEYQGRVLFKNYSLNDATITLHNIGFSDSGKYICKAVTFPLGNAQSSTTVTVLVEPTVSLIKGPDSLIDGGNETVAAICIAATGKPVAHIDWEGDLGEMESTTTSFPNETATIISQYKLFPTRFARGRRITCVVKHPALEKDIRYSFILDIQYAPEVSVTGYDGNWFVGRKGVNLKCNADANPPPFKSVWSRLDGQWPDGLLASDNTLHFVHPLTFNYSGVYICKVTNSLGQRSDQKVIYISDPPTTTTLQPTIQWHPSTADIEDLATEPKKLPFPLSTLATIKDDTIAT

Target: nectin-3 (Homo sapiens) (UniProt Q9NQS3)

nectin-3 (from UniProt Q9NQS3)
Kd: 228 µM
